Target: the molecule itself
Assay: cross-linking; 35 µM protein in 50 mM phosphate pH 7.4, 150 mM NaCl, preincubated at 37°C for 30 min; BS2G d0/d4 at 20-fold molar excess (50- and 100-fold also tested), 1 h on ice, quenched with Tris; read by 4-20% SDS-PAGE with Coomassie stain

B1: Human recombinant αA-WT crystallin (natural protein, UniProt P02489 1-173, looked up)
chain: MDVTIQHPWFKRTLGPFYPSRLFDQFFGEGLFEYDLLPFLSSTISPYYRQSLFRTVLDSGISEVRSDRDKFVIFLDVKHFSPEDLTVKVQDDFVEIHGKHNERQDDHGYISREFHRRYRLPSNVDQSALSCSLSADGMLTFCGPKIQTGLDATHAERAIPVSREEKPTSAPSS
notes: alpha-A-crystallin, human, wild type; Polydisperse oligomer with a variable number of subunits; also called wild-type αA-crystallin; source: E. coli BL21(DE3) pLysS, purified from the supernatant (gel filtration Superdex G-200, Q-Sepharose anion exchange)
binding result: binds

Reference: publication PMC3673982 (PLoS ONE, 2013)
